Values of other authors, collected in patent publication US7172876B2, “Method of screening therapeutic agents for nerve degeneration associated diseases” (Takeda Pharmaceutical Company Limited, priority 2002, dated 2007).

Target: T1, FPRL1 (Homo sapiens, UniProt P25090)
T1 sequence (P25090 1-351): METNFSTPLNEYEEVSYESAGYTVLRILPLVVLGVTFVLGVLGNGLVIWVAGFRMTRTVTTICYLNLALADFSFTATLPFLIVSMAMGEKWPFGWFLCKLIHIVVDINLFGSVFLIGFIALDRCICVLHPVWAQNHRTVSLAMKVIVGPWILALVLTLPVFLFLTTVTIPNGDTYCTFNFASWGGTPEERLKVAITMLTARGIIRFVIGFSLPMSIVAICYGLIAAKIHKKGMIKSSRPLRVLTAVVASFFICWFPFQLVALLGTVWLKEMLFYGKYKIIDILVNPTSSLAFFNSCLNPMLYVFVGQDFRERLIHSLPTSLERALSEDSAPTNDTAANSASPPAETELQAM
Conditions: reported in the literature; cited from earlier work

formyl-Met-Leu-Phe [fMLF]
agonist of FPRL1: Agonists
